Assays:
PTPβ = PTPβ (Homo sapiens, UniProt P23467); conditions: read-out: PTPβ IC50
LAR = LAR (Homo sapiens, UniProt P10586); conditions: read-out: LAR IC50
PTPα = PTPα (Homo sapiens, UniProt P18433); conditions: read-out: PTPα IC50
CD45 = CD45 (Homo sapiens, UniProt P08575); conditions: read-out: CD45 IC50

Chains of the proteins cited; added tags and fusions are not shown. Residues count along the entry.
UniProt P23467, 1703-1963: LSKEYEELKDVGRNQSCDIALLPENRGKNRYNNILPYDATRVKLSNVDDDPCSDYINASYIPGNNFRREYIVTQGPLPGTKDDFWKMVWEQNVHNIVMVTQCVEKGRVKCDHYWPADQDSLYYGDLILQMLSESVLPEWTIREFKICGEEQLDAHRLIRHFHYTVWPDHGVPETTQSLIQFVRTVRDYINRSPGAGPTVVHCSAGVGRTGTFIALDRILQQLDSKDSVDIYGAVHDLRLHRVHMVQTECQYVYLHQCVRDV
UniProt P10586, 30-1907: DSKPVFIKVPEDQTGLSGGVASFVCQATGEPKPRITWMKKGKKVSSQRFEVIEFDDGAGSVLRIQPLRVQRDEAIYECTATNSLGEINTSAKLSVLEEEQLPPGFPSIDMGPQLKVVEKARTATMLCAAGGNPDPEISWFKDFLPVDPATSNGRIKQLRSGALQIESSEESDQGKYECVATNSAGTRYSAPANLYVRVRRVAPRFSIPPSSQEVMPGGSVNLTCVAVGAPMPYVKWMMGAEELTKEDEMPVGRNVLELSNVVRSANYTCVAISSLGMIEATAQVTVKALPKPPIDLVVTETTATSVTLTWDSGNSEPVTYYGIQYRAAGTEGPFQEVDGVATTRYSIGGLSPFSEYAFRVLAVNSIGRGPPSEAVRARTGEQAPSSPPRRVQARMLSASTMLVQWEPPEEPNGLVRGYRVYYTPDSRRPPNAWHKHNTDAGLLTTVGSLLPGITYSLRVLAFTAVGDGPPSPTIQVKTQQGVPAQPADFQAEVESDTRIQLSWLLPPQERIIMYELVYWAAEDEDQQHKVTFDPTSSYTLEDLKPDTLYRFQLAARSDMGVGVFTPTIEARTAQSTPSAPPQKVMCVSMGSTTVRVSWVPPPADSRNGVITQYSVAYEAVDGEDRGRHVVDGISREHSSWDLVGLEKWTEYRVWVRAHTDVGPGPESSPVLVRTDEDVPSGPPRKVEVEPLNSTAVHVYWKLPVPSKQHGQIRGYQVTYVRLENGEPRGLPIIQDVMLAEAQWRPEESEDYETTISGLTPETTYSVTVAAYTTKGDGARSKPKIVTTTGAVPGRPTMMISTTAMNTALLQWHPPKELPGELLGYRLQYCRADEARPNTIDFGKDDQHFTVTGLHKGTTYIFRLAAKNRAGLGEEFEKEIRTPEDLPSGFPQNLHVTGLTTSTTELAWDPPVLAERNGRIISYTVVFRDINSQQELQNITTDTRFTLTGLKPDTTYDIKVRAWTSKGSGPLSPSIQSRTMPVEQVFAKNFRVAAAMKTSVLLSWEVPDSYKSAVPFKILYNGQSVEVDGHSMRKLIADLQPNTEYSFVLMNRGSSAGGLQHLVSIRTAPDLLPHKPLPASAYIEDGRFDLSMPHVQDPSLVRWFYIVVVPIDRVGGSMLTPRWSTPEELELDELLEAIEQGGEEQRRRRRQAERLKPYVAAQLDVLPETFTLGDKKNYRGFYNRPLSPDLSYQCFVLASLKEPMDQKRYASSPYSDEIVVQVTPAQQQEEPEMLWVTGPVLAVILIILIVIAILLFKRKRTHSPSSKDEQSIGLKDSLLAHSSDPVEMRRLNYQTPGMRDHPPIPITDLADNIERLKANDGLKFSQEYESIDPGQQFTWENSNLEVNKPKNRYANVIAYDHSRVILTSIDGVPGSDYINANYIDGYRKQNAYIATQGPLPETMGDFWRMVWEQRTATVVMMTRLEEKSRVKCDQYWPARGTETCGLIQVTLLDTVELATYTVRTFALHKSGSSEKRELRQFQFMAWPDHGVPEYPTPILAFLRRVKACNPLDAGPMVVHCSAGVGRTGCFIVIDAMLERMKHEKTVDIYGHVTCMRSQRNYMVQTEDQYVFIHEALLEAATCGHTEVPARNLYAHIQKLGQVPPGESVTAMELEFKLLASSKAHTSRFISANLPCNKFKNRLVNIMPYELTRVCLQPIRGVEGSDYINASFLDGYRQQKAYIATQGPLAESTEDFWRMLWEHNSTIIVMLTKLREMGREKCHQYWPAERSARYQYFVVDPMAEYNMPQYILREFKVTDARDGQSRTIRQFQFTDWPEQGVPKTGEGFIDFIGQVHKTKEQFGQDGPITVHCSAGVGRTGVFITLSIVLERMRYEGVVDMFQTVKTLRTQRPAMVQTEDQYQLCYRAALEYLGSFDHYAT
UniProt P18433, 175-802: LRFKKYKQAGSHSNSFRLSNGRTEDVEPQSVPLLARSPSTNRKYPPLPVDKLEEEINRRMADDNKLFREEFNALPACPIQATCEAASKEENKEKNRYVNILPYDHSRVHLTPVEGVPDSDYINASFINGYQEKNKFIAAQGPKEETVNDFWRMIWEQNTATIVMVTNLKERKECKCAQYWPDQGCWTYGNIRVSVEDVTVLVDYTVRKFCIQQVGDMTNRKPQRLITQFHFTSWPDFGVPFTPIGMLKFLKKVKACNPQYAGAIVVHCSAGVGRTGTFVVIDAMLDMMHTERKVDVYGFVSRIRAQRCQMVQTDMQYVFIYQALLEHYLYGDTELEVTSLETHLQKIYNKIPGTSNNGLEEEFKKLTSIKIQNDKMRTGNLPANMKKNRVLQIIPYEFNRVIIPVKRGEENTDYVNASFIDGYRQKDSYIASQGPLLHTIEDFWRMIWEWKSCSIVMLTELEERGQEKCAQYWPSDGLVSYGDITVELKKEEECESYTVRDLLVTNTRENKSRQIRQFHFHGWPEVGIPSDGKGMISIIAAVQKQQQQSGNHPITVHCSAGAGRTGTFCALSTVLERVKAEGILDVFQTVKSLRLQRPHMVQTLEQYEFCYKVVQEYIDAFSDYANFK
UniProt P08575, 599-1306: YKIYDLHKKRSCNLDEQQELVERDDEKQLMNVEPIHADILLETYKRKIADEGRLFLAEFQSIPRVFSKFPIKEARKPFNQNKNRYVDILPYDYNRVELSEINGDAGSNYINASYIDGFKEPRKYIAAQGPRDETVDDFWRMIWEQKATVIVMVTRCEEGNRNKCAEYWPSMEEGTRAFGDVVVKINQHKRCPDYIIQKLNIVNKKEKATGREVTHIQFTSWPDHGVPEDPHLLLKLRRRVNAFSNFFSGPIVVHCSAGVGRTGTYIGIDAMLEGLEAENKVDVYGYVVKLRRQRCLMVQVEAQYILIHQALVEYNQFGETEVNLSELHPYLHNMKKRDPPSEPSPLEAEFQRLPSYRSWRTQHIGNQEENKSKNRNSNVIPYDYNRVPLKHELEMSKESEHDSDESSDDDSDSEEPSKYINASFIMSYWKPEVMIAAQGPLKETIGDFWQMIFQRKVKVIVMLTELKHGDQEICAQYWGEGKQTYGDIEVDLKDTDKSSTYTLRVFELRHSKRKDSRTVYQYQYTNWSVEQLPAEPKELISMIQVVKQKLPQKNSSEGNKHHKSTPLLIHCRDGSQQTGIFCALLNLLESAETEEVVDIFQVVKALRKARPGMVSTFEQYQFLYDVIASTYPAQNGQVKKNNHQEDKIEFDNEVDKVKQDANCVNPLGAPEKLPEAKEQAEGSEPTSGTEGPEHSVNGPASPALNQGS

Measured: IC50

O=C(Nc1ccc(OCc2ccccc2)c(Cl)c1)C(=O)Nc1ccccc1NC(=O)[C@H](c1ccccc1)S(=O)(=O)O [8k]
> 50 µM: PTPβ | LAR | PTPα | CD45

From PMC12831972 (2025)
